Experimental data taken from US20060148818A1, “Novel tetraydrospiro(piperdine-2,7'- pyrrolo{3,2-b}pyridine derivatives and novel in-dole derivatives useful in the treatment of 5-ht6 receptor-related disorders” (priority 2003, published 2006).
Structures can show the parent of a compound that is named as a salt.

Sequences of proteins named here, by UniProt entry; tags and fusion partners are left off.
UniProt P50406, whole entry: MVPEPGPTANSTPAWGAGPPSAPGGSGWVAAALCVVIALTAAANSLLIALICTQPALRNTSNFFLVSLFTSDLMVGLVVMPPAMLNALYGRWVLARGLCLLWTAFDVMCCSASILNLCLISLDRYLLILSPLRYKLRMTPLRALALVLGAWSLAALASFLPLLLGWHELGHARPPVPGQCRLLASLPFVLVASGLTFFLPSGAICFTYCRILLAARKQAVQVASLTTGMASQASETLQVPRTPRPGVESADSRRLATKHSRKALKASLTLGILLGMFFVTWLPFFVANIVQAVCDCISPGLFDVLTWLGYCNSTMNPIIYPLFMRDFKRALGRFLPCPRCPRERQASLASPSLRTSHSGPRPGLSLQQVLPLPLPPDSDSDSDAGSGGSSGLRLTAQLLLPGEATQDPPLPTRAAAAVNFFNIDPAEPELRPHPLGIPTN

The compounds below were run against human 5-HT6 receptor (Homo sapiens, UniProt P50406) (assay: biochemical).

Compound	Ki [nM]
Cc1ccc(S(=O)(=O)n2ccc3c4c(ccc32)CCC(N)C4)cc1 (stereo not shown) [Example 8, 3-[(4-Methylphenyl)sulfonyl]-6,7,8,9-tetrahydro-3H-benzo[e]indol-8-amine trifluoroacetate]	94
O=S(=O)(Nn1ccc2c(N3CCNCC3)cccc21)c1ccccc1 [Example 7, N-(4-piperazin-1-yl-1H-indol-1-yl)benzenesulfonamide hydrochloride]	184
O=S(=O)(c1ccccc1)n1ccc2c(Nc3ccncc3)cccc21 [Example 6]	356
O=C(CNCCO)Nc1cccc2c1ccn2S(=O)(=O)c1ccccc1 [Example 5, N-(1-Benzenesulfonyl-1H-indol-4-yl)-2-(2-hydroxy-ethylamino)-acetamide]	230
